Measured values as given in BindingDB's records for doi:10.1016/j.bmcl.2013.05.024 (Janssen Research and Development, 2014).

Test: Antagonist activity at CCR2 receptor in human THP1 cells assessed as inhibition of MCP-1 induced chemotaxis after 3 hrs

IC50 | SMILES
33 nM | COC1COCCC1N[C@@H]1C[C@H]2CN(C(=O)/C=C/c3ccccc3)C[C@@]2(C(=O)N2CCc3ncc(C(F)(F)F)cc3C2)C1 (mixture of isomers)
320 nM | COC1COCCC1N[C@@H]1C[C@H]2CN(C)C[C@@]2(C(=O)N2CCc3ncc(C(F)(F)F)cc3C2)C1 (mixture of isomers)
